Yeast mating assay B: variants of the scFv Ab-14

The measurements come from Li et al. 2023 (doi:10.1038/s41467-023-39022-2) through the FLAb antibody collection.

Antigen: PDVDLGDISGINAS, a 14-residue peptide of the SARS-CoV-2 spike HR2 region.

Parent scFv Ab-14: VH joined to VL by a 15-residue (Gly4Ser)3 linker. Changes lie in the heavy chain CDRs alone.
VH: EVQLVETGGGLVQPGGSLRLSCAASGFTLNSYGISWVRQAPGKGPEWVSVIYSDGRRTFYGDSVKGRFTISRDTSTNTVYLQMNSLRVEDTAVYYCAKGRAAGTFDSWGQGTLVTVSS
VL: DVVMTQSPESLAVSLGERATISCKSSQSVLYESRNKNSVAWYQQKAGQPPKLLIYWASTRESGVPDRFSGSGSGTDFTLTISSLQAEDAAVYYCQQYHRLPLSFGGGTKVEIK

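Phage display of a naive human antibody library on the peptide gave the parent. The variants were designed computationally from a first round of random CDR variants and then made and measured. Their group label is 14H_En_HC (En: ensemble of fine-tuned language models; HC: hill climbing; a sequence that several methods proposed may carry one label only). The assay is AlphaSeq: two haploid yeast populations carry antibody and antigen on their surface. Mating (16 h, 30 °C) was followed by selection of diploids and sequencing of their barcodes. Each replicate has its own calibration line, from reference interactions of the BCL2 family. Each pool was mated in six replicate cultures.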

Each variant is given by its three heavy chain CDRs, as the data file delimits them; those of the parent are GFTLNSYGIS, VIYSDGRRTFYGDSVK, GRAAGTFDS.
Scale: log10 of Kd in nM, estimated from mating counts; low values are strong binders.
"ND" means that the variant was in the library but no mating with the target was seen in that replicate; the authors take this as a sign of poor binding, and no number exists.

| # | CDR-H1 | CDR-H2 | CDR-H3 | replicates, log10 nM | empty controls |
|---|---|---|---|---|---|
| 1 | GFNLDEYGIS | VIYADGRRTAYQDSVK | GEGAGTFDF | 0.80 / 1.09 / 0.77 / 0.68 / 0.57 / 1.22 | 1 of 18 (2.51) |
| 2 | GFDLNEYGIS | VIYADGRRSAYADSVK | GQLAGTFDV | -0.52 / -0.66 / -0.66 / -0.69 / -0.65 / -0.46 | 2 of 18 (2.01) |
| 3 | GFQLDEYGIS | VIYADGRRTFYTDSVK | GGNAGTFDV | -0.71 / -0.92 / -0.90 / -0.98 / -1.01 / -0.73 | 0 of 18 |
| 4 | GFDLNEYGIS | VIYADGRRTFYKDSVK | GEVAGTFDS | -0.84 / -0.67 / -0.86 / -0.94 / -0.69 / -0.28 | 0 of 18 |
| 5 | GFDLNEYGIS | VIYADGVRTFYTDSVK | GANAGTFDQ | 1.37 / ND / ND / 1.62 / 1.04 / 0.35 | 1 of 18 (1.14) |
| 6 | GFDLNEYGIS | VIYADGVRTFYDDSVK | GQLAGTFDL | -0.28 / -0.26 / -0.70 / -0.40 / -0.35 / -0.30 | 0 of 18 |
| 7 | GFDLEDYGIS | VIYADGRRTFYADSVK | GENAGTFDL | -0.31 / -0.40 / -0.09 / -0.41 / -0.30 / -0.14 | 0 of 18 |
| 8 | GFDLNEYGIS | VIYADGLRTAYTDSVK | GEFAGTFDV | -0.13 / -0.75 / -0.39 / -0.86 / -0.61 / -0.35 | 1 of 18 (1.06) |
| 9 | GFDLNEYGIS | VIYADGMRTFYADSVK | GKNAGTFLM | ND / 2.03 / ND / 2.50 / 2.98 / ND | 0 of 18 |
| 10 | GFDLDEYGIS | VIYADGQRTFYADSVK | GTNAGTFDV | 0.02 / 0.67 / 0.03 / -0.05 / 0.18 / 0.51 | 0 of 18 |
| 11 | GFNLNEYGIS | VIYADGMRTFYADSVK | GGNAGTFDV | -0.02 / 0.41 / 0.23 / -0.12 / -0.13 / 0.34 | 0 of 18 |
| 12 | GFDLNEYGIS | VIYADGVRTFYTDSVK | GEFAGTFDV | -0.39 / 0.08 / 0.45 / -0.02 / -0.45 / -0.16 | 0 of 18 |
| 13 | GFDLNEYGIS | VIYADGRRTFYDDSVK | GELAGTFDL | -0.51 / -0.60 / -0.43 / -0.57 / -0.76 / -0.49 | 0 of 18 |
| 14 | GFDLNEYGIS | VIYADGRRTAYADSVK | GQIAGTFDQ | 0.71 / 0.78 / 0.17 / 0.04 / -0.11 / 0.53 | 0 of 18 |
| 15 | GFDLNEYGIS | VIYADGFRTFYTDSVK | GEVAGTFDT | 0.04 / -0.32 / -0.01 / 0.15 / -0.44 / 0.01 | 0 of 18 |
| 16 | GFDLNEYGIS | VIYADGQRTFYTDSVK | GQNAGTFDV | -0.45 / -0.22 / -0.39 / -0.64 / -0.18 / -0.36 | 0 of 18 |
| 17 | GFDLNEYGIS | VIYADGVRTFYADSVK | GEYAGTFDI | 0.49 / 0.20 / 0.32 / 0.24 / 0.00 / 0.44 | 1 of 18 (3.08) |
| 18 | GFDLNEYGIS | VIYADGMRTAYSDSVK | GEAAGTFDL | -0.15 / -0.02 / -0.11 / -0.15 / -0.34 / -0.12 | 0 of 18 |
| 19 | GFDLNEYGIS | VIYADGRRTFYADSVK | GSEAGTFDI | -0.93 / -0.77 / -1.81 / -1.18 / -0.88 / 1.11 | 0 of 18 |
| 20 | GFDLNEYGIS | VIYADGMRTFYADSVK | GNIAGTFDS | 0.17 / -0.13 / -0.04 / -0.29 / 0.08 / 0.45 | 0 of 18 |
| 21 | GFDLNEYGIS | VIYADGLRTSYDDSVK | GNLAGTFDQ | ND / ND / 1.44 / ND / 2.21 / 2.73 | 1 of 18 (1.58) |
| 22 | GFDLNEYGIS | VIYADGRRTFYADSVK | GQVAGTFNV | 0.71 / 0.29 / 0.26 / 0.60 / -0.35 / -0.12 | 0 of 18 |
| 23 | GFDLNEYGIS | VIYADGKRTAYSDSVK | GGNAGTFDS | -2.03 / -0.95 / -0.40 / -1.70 / -0.81 / -0.34 | 0 of 18 |
| 24 | GFDLNEYGIS | VIYADGRRTFYTDSVK | GEFAGTFDI | -1.17 / -1.35 / -1.27 / -1.78 / -1.66 / -1.15 | 0 of 18 |
| 25 | GFDLNEYGIS | VIYADGRRTYYVDSVK | GVNAGTFDV | 0.00 / 0.74 / -0.47 / 0.01 / 0.13 / -0.04 | 0 of 18 |
| 26 | GFDLNEYGIS | VIYADGRRTFYSDSVK | GEIAGTFDS | -0.58 / -0.13 / 0.22 / -0.45 / ND / -0.20 | 0 of 18 |
| 27 | GFDLNEYGIS | VIYADGKRTFYADSVK | GKNAGTFDV | -0.34 / -0.45 / -0.30 / -0.54 / -0.37 / -0.20 | 0 of 18 |
| 28 | GFDLNEYGIS | VIYADGSRTFYSDSVK | GNTAGTFDS | -0.22 / -0.37 / 0.02 / -0.26 / -0.69 / -0.30 | 0 of 18 |
| 29 | GFDLNEYGIS | VIYADGQRTFYADSVK | GKAAGTFDQ | -0.56 / -0.47 / -0.41 / -0.52 / -0.31 / -0.41 | 0 of 18 |
| 30 | GFDLNEYGIS | VIYADGRRTFYTDSVK | GEIAGTFDS | -0.30 / -0.29 / -0.47 / -0.71 / -0.36 / -0.42 | 0 of 18 |
| 31 | GFDLNEYGIS | VIYADGRRTAYADSVK | GEIAGTFDF | -0.53 / -0.15 / -0.25 / -0.77 / -0.75 / -0.45 | 0 of 18 |
| 32 | GFDLDEYGIS | VIYADGMRTAYADSVK | GNIAGTFDS | -0.15 / -0.33 / 0.14 / -0.43 / -0.52 / -0.08 | 0 of 18 |
| 33 | GFNLNEYGIS | VIYADGVRTFYSDSVK | GEVAGTFDV | -0.23 / -0.32 / -0.18 / -0.56 / -0.53 / -0.22 | 0 of 18 |
| 34 | GFDLNEYGIS | VIYADGLRTAYTDSVK | GEFAGTFDS | -0.03 / -0.11 / -0.23 / 0.18 / -0.24 / 0.25 | 0 of 18 |
| 35 | GFDLNEYGIS | VIYADGRRTFYADSVK | GQAAGTFDL | -0.52 / -0.40 / -0.57 / -0.56 / -0.42 / -0.07 | 0 of 18 |
| 36 | GFNLEDYGIS | VIYADGRRTAYADSVK | GKVAGTFDV | -0.51 / -0.48 / -0.67 / -0.56 / -0.50 / -0.34 | 0 of 18 |
| 37 | GFDLNEYGIS | VIYADGRRTFYTDSVK | GGNAGTFDN | -0.72 / -0.57 / -0.18 / -0.82 / -0.46 / -0.57 | 0 of 18 |
| 38 | GFDLNEYGIS | VIYADGVRTAYTDSVK | GEAAGTFDL | -0.48 / -0.39 / -0.37 / -0.09 / 0.43 / -0.22 | 0 of 18 |
| 39 | GFDLNEYGIS | VIYADGRRTAYADSVK | GKAAGTFDQ | -0.29 / 0.37 / 0.29 / -0.05 / 0.01 / 0.79 | 0 of 18 |
| 40 | GFDLNEYGIS | VIYADGRRTAYSDSVK | GEAAGTFDL | 0.62 / -0.06 / ND / 0.45 / 0.88 / ND | 0 of 18 |
| 41 | GFDLNEYGIS | VIYADGRRTFYSDSVK | GEVAGFFDQ | ND / 3.16 / ND / 2.28 / ND / 3.02 | 1 of 18 (3.26) |
| 42 | GFDLESYGIS | VIYADGQRTAYADSVK | GNVAGTFDV | -0.25 / -0.33 / -0.22 / -0.40 / -0.36 / -0.20 | 0 of 18 |

The first 3 entries again:

| CDR-H1 | CDR-H2 | CDR-H3 | replicates, log10 nM | empty controls |
|---|---|---|---|---|
| GFNLDEYGIS | VIYADGRRTAYQDSVK | GEGAGTFDF | 0.80 / 1.09 / 0.77 / 0.68 / 0.57 / 1.22 | 1 of 18 (2.51) |
| GFDLNEYGIS | VIYADGRRSAYADSVK | GQLAGTFDV | -0.52 / -0.66 / -0.66 / -0.69 / -0.65 / -0.46 | 2 of 18 (2.01) |
| GFQLDEYGIS | VIYADGRRTFYTDSVK | GGNAGTFDV | -0.71 / -0.92 / -0.90 / -0.98 / -1.01 / -0.73 | 0 of 18 |

As a blank, each scFv also met three strains without target: over all heavy chain designs, 1% of these pairings were detected, typically at 2.08 and seldom below 0.84. Also given: how often the same scFv was detected with the empty control strains, with their mean in brackets.
Values of this round are not directly comparable with the first-round values of the same sequences.
The authors' rule: three or more of the six replicates give a measured affinity, fewer mean a poor binder.